Literature values, collected in paper PMC3341666 (Biochemistry, 2009).

By UniProt entry, the sequences of proteins in these tests, tags left out. Residues count along the entry.
UniProt P07288, 25-261: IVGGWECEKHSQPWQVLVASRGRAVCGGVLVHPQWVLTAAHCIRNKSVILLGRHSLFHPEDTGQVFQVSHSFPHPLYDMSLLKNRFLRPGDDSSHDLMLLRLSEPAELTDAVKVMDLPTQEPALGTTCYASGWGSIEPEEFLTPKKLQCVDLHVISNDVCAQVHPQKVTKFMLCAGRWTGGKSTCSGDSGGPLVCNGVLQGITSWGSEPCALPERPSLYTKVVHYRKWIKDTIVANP

Molecular target: Prostate-Specific Antigen (PSA) (Homo sapiens, UniProt P07288)
Conditions: read-out: Ki for PSA; previous study

Ki: 65 nM
Substance: Z-SSKL(boro)L (SSKLL)
